These results are taken from patent US20260092074A1, “Annelated Pyridines as Steroidogenesis Inhibitors, Preparation Method and Use Thereof” (Guangzhou Vinnocent Pharmaceutical Limited, priority 2022, published 2026).

By UniProt entry, the sequences of proteins in these tests, tags left out. Residues count along the entry.
UniProt P19099, 25-503 limits assumed: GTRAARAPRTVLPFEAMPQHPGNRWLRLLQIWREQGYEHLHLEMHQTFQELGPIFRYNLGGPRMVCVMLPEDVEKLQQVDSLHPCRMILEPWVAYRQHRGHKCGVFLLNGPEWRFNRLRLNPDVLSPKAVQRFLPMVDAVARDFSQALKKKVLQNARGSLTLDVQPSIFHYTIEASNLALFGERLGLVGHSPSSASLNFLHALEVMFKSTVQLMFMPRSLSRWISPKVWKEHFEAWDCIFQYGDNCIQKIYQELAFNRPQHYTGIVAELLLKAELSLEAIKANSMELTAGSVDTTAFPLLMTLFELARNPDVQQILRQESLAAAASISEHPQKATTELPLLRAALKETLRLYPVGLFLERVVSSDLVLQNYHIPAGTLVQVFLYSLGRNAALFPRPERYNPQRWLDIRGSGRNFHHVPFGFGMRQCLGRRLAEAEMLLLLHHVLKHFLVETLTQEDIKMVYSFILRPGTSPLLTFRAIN
UniProt P15538, 25-503 limits assumed: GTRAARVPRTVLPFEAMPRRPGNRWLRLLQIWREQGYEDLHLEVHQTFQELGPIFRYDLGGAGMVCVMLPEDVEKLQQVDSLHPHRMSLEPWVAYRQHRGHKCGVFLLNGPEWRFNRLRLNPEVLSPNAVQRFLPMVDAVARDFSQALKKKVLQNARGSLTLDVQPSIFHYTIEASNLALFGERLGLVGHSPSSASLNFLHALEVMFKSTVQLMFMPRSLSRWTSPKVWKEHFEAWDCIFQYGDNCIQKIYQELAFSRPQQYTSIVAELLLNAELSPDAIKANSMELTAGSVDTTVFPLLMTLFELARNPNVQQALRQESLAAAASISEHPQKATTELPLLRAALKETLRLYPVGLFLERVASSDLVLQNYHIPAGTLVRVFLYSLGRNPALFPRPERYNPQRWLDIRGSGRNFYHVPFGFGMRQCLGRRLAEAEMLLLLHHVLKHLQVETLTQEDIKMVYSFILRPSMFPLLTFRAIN

One assay deals with human CYP11B2 (Homo sapiens, UniProt P19099). The experiment in a line: Inhibition of hCYP11B2 in transfected V79 cells. The class given is cell-based. The following applies: read-out: CYP11B2 IC50; hamster V79 cells expressing human CYP11B2; substrate 11-deoxycorticosterone 200 nM.
The next assay concerns the target human CYP11B1 (Homo sapiens, UniProt P15538). The experiment in a line: Inhibition of hCYP11B1 in transfected V79 cells. The assay is classed as cell-based. Conditions: read-out: CYP11B1 IC50; hamster V79 cells expressing human CYP11B1; substrate 11-deoxycortisol 200 nM.

SMILES strings stand for the structures.

For the molecule `N#Cc1ccc(S(=O)(=O)N2CCSc3c(-c4ccc5ncoc5c4)cncc32)cc1`, the IC50 came to 0.0026 µM at human CYP11B2 and 0.472 µM at human CYP11B1.
